These results are taken from PubChem BioAssay AID1645859 (Buhrlage Lab, Dana-Farber Cancer Institute and Novartis …, 2021).

Amino acid sequences for entries named in this document (tags omitted).
UniProt P09936, whole entry: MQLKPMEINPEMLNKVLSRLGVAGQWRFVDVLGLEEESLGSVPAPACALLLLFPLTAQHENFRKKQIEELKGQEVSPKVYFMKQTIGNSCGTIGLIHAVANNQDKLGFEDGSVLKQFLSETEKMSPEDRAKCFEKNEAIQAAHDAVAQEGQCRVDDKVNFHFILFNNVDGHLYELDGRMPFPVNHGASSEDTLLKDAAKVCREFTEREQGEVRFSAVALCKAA

Each structure is given as a SMILES string. Only a part is listed here, and it is no random draw. Some of these compounds have results that are not shown, active ones among them. Activity calls are given as the source filed them. Rule as the data show it: active = inhibition above about 30%; inactive = the rest.

For this test, the target named is Ubiquitin carboxyl-terminal hydrolase isozyme L1 (Homo sapiens) (UniProt P09936). In words: blocks human UCHL1 ubiquitin-rhodamine cleavage (AID 1645859). The conditions noted are these: purified UCHL1, Ub-rhodamine cleavage fluorescence; at 20 µM; hits give high values.
On to `COc1ccc(C(=O)NCC2(N3CCOCC3)CCCCC2)cc1`, for which the inhibition was inactive: 0.598%.
Take `O=C(NCC1(N2CCCCC2)CCCCC1)c1ccc2c(c1)OCCO2`: the inhibition is inactive: 1.57%.
The figure for `Cc1c(C(=O)NCC2(N(C)C)CCCCC2)oc2ccc(F)cc12` is inactive: 0.115%.
The figure for `COc1cccc(C(=O)NCC2(N3CCCCC3)CCCCC2)c1` is inactive: -7.13%; for `Cc1c(C(=O)NCC2(N(C)C)CCCCC2)oc2ccccc12` it is inactive: -0.0635%; for `O=C(NCC1(N2CCCCC2)CCCCC1)c1ccc2ccccc2c1` it is inactive: -3.69%.
With `O=C(NCC1(N2CCOCC2)CCCCC1)c1ccccc1F`, the inhibition is inactive: -0.201%.

Broadly, the inhibition is the drop in the measured response relative to a control, in per cent.
